Biological target: Type-1 angiotensin II receptor (Oryctolagus cuniculus, UniProt P34976)
Assay: In vitro antagonist activity against angiotensin II receptor type 1 in rabbit aorta using [125I]-Sar, Ile AII.
Format: functional, tissue-based

The chains behind the UniProt entries cited, without tags or fusion partners.
UniProt P34976, whole entry: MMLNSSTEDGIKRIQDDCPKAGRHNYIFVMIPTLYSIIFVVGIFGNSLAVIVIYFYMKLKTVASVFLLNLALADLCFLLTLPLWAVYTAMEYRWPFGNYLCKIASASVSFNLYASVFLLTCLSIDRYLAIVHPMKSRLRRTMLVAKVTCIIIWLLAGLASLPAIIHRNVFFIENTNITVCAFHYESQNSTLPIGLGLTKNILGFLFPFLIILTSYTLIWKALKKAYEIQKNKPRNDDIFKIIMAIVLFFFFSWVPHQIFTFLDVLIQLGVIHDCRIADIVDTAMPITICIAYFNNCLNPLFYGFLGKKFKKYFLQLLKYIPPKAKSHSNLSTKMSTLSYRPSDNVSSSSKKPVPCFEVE

IC50: 18 nM
SMILES: CCc1nc2c(C)cc(C)nc2n1Cc1ccc2c(c1)CCN2C(c1ccccc1)c1nnn[nH]1 (stereo unspecified)

Reference: ChEMBL document CHEMBL1126573, “Non-peptide angiotensin II receptor antagonists. 1. Design, synthesis, and biological activity of N-substituted indoles and dihydroindoles” (J Med Chem, 1993)
